Screening results as filed in PubChem.
HCMV UL50-53 inh – cytomegalovirus nuclear egress complex inhibition | HTRF UL50-UL53 interaction, normalized percent inhibition | inhibition, % (no concentration beside the values) | actives 0.15% (n = 190,000); in the data active = inhibition above about 27%, passing the limit was not always enough
GIV Gai3 FP – inhibitors of GIV peptide binding to Galpha-i3, primary screen, biochemical, fluorescence polarization, FITC-GIV GBA peptide, rat Galphai3 | Guanine nucleotide-binding protein G(i) subunit alpha-3 (Rattus norvegicus), P08753 | 90 min; hits give low values; scaled: aluminum fluoride 0%, vehicle 100% | percent of control (FP), % (test concentration not listed) | hit rate 0.42% among 210,000 | AID 1224905, 2016;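 active = replicate mean at 85% of control or lower, very high polarization wells dropped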;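 note: wells of about 15 µL received 100 nL stock; the first replicate is given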
Active calls of the source: *. In the library only some 0.46% were active in any assay of this set; here they are far more common.

Protein sequences, listed by entry. Tags and fused reporters are not part of them.
Guanine nucleotide-binding protein G(i) subunit alpha-3 (Rattus norvegicus), P08753, UniProt P08753, whole entry, looked up: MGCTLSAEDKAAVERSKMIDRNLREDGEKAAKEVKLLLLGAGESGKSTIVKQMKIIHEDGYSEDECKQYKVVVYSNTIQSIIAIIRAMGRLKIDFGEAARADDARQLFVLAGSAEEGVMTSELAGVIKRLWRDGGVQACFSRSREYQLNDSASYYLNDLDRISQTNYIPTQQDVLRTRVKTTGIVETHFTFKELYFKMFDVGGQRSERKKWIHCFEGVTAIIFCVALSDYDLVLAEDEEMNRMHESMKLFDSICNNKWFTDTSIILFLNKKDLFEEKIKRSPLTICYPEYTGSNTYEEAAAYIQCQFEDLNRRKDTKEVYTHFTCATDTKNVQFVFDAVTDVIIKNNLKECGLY

Screening CC(=O)N1CCCSc2ccc(S(=O)(=O)Nc3ncccc3C)cc21 returned HCMV UL50-53 inh -27 and GIV Gai3 FP 99.
For C=CCn1c(NS(=O)(=O)c2ccccc2)c(C#N)c2nc3ccccc3nc21 the results were HCMV UL50-53 inh 65*.
Screening Cc1ccc(S(=O)(=O)Nc2c(C#N)c3nc4ccccc4nc3n2Cc2ccccc2)cc1 returned HCMV UL50-53 inh 77*.
`N#Cc1c(NS(=O)(=O)c2ccccc2)n(-c2ccccc2)c2nc3ccccc3nc12` gave HCMV UL50-53 inh -42.
For N#Cc1c(N)n(Cc2ccccc2)c2nc3ccccc3nc12 the results were HCMV UL50-53 inh -20.
Cc1ccc(C(=O)c2cn(CC(=O)Nc3ccccc3)c3ccccc3c2=O)cc1 was read as HCMV UL50-53 inh 1 and GIV Gai3 FP 100.
Screening N#Cc1c(N)nc(SCC(=O)c2ccc3ccccc3c2)c(C#N)c1-c1ccccc1 returned HCMV UL50-53 inh 21* and GIV Gai3 FP 97.
For CC(C)(C)C(=O)CSc1nc(N)c(C#N)c(-c2cccs2)c1C#N the results were HCMV UL50-53 inh 60*.
Screening COc1cc(-c2c(C#N)c(N)nc(SCC(N)=O)c2C#N)cc(OC)c1OC returned GIV Gai3 FP 110.
Screening CCOc1ccc(-c2c(C#N)c(N)nc(SCC(=O)c3ccccc3)c2C#N)cc1 returned HCMV UL50-53 inh -11 and GIV Gai3 FP 102.
`CCOC(=O)CSc1nc(N)c(C#N)c(-c2ccc(OCC)cc2)c1C#N` gave HCMV UL50-53 inh 44* and GIV Gai3 FP 106.
For N#Cc1c(N)nc(SCC(N)=O)c(C#N)c1-c1ccc(Br)cc1 the results were HCMV UL50-53 inh 66* and GIV Gai3 FP 105.
For COC(=O)CSc1nc(N)c(C#N)c(-c2ccccc2)c1C#N the results were HCMV UL50-53 inh 33 and GIV Gai3 FP 103.
`CCOC(=O)CC(=O)CSc1nc(N)c(C#N)c(-c2cccs2)c1C#N` gave GIV Gai3 FP 110.
Screening COc1ccc(N=C2SC(C(=O)Nc3ccc(OC)cc3)CC(=O)N2CCc2ccc(OC)c(OC)c2)cc1 (stereo not drawn) returned HCMV UL50-53 inh 2 and GIV Gai3 FP 103.
`COc1cc2nc(CNc3ccc(C)cc3)[nH]c(=O)c2cc1OC` gave HCMV UL50-53 inh -9.
`O=C(COC(=O)c1ccc(-c2nc3ccccc3s2)s1)NC1CC1` gave HCMV UL50-53 inh -34.
For CCc1ccc2[nH]c(C)c(CN(C)C)c(=O)c2c1 the results were HCMV UL50-53 inh -14 and GIV Gai3 FP 105.
`Oc1ccccc1-c1cc(C(F)(F)C(F)F)no1` gave HCMV UL50-53 inh -29 and GIV Gai3 FP 100.
Screening CCCC1=NN(C(=O)c2ccc(C(C)(C)C)cc2)C(O)(C(F)(F)F)C1 (stereo not drawn) returned HCMV UL50-53 inh 16 and GIV Gai3 FP 107.
Screening CCOc1ccc(NC(=O)C2c3ccccc3Oc3ccccc32)cc1 returned GIV Gai3 FP 101.
`Cc1ccc2c(c1)Oc1cc(Cl)c(S(=O)(=O)N3CCCC3)cc1C(=O)N2` gave GIV Gai3 FP 107.
`COc1ccc(CNC(=O)c2ccc3c(c2)c(C)c(C)n3C)cc1` gave HCMV UL50-53 inh -10 and GIV Gai3 FP 107.
For c1ccc(N=c2[n-][n+](-c3ccccc3)cn2-c2ccccc2)cc1 the results were HCMV UL50-53 inh 55*.
`O=C1CN(c2ccccc2)C(=Nc2ccccc2)S1` gave HCMV UL50-53 inh 7 and GIV Gai3 FP 97.
`Cc1ccc(-c2nnc3n2N=C(C(C)(C)C)CS3)cc1` gave HCMV UL50-53 inh -13.
C=CCNC(=O)/C(=C/c1ccc([N+](=O)[O-])cc1)NC(=O)c1ccco1 was read as GIV Gai3 FP 105.
Screening COc1cc(/C=C(\C#N)C(=O)C(C)(C)C)ccc1O returned HCMV UL50-53 inh -73.
Screening COc1cc(/C=C(\C#N)C(=O)c2ccc(O)c(O)c2)cc(I)c1O returned HCMV UL50-53 inh -122 and GIV Gai3 FP -31*.
For O=C(Cn1cc(C(F)(F)F)ccc1=O)N/N=C/c1ccccn1 the results were HCMV UL50-53 inh -17.

Six compounds drawn at random from the list so far:
`COc1ccc(CNC(=O)c2ccc3c(c2)c(C)c(C)n3C)cc1` gave HCMV UL50-53 inh -10 and GIV Gai3 FP 107.
Screening COc1cc(/C=C(\C#N)C(=O)C(C)(C)C)ccc1O returned HCMV UL50-53 inh -73.
For O=C(Cn1cc(C(F)(F)F)ccc1=O)N/N=C/c1ccccn1 the results were HCMV UL50-53 inh -17.
`O=C1CN(c2ccccc2)C(=Nc2ccccc2)S1` gave HCMV UL50-53 inh 7 and GIV Gai3 FP 97.
Screening CCOc1ccc(NC(=O)C2c3ccccc3Oc3ccccc32)cc1 returned GIV Gai3 FP 101.
For c1ccc(N=c2[n-][n+](-c3ccccc3)cn2-c2ccccc2)cc1 the results were HCMV UL50-53 inh 55*.

Additional entries
CCCCCN1/C(=C\C=C\c2n(CC)c3cc(Cl)c(Cl)cc3[n+]2CCCCC)N(CC)c2cc(Cl)c(Cl)cc21 was read as GIV Gai3 FP -62*.
Screening C=CCn1c(/C=C/C=C2N(CC)c3cc(Cl)c(Cl)cc3N2CC)[n+](CCCS(=O)(=O)[O-])c2cc(Cl)c(Cl)cc21 returned GIV Gai3 FP 169.
`CC(=O)OCCN1C(=C/C=C/c2n(CCOC(C)=O)c3cc(Cl)c(Cl)cc3[n+]2CCOC(C)=O)N(CCOC(C)=O)c2cc(Cl)c(Cl)cc21` gave GIV Gai3 FP 282.
For CCCCN1/C(=C/C=C/c2n(CCCC)c3cc(Cl)c(Cl)cc3[n+]2C)N(C)c2cc(Cl)c(Cl)cc21 the results were GIV Gai3 FP 37*.
Screening O=C1Nc2ccccc2Oc2cc(Oc3ccc(Br)cc3)c(S(=O)(=O)N3CCCC3)cc21 returned GIV Gai3 FP 108.
CC(Sc1nc2c([nH]1)c(=O)n(C)c(=O)n2C)C(=O)O (stereo not drawn) was read as HCMV UL50-53 inh -11 and GIV Gai3 FP 85*.
`Cn1c(=O)c2[nH]c(SCC(=O)C(C)(C)C)nc2n(C)c1=O` gave HCMV UL50-53 inh -11.
Screening Cc1ccc(-c2nn(CC(=O)Nc3cnn(C)n3)c3ccccc23)c(F)c1 returned HCMV UL50-53 inh -26.
`CCCN1C(=O)/C(=C/c2ccc(-c3cccc(C(F)(F)F)c3)o2)NC1=S` gave HCMV UL50-53 inh -30 and GIV Gai3 FP 187.
CCCN1C(=O)/C(=C/c2ccc(-c3ccc(Br)cc3)o2)NC1=S was read as HCMV UL50-53 inh -27 and GIV Gai3 FP -83*.
O=C(Cn1ncn2c(cc3cc(F)ccc32)c1=O)NCCCN1CCOCC1 was read as HCMV UL50-53 inh -4 and GIV Gai3 FP 101.
O=c1oc2ccccc2cc1-c1nc(-c2ccccc2)c2cc(Cl)ccc2n1 was read as GIV Gai3 FP 104.
`O=C(CSc1nc2c(sc3ncccc32)c(=O)n1Cc1ccccc1)Nc1ccc(F)c(F)c1` gave HCMV UL50-53 inh 68* and GIV Gai3 FP 102.
COc1ccc(Cn2c(SCC(=O)Nc3cccc(Cl)c3)nc3ncccc3c2=O)cc1 was read as HCMV UL50-53 inh 2 and GIV Gai3 FP 105.
For CCOC(=O)CSc1nc2c(sc3ccccc32)c(=O)n1Cc1ccc(C)cc1 the results were GIV Gai3 FP 105.
CC(C)CSc1nc2c(sc3ncccc32)c(=O)n1Cc1ccccc1 was read as HCMV UL50-53 inh 62* and GIV Gai3 FP 103.
Screening O=C(CSc1nc2c(sc3ncccc32)c(=O)n1Cc1ccc(F)cc1)Nc1ccc(F)c(F)c1 returned HCMV UL50-53 inh 64* and GIV Gai3 FP 101.
For O=C(Cn1cnc2c(sc3ncccc32)c1=O)Nc1ccc(F)c(F)c1 the results were GIV Gai3 FP 104.
CC(C(=O)N1CCN(Cc2ccccc2)CC1)N1CCN(S(=O)(=O)c2cccc(F)c2)CC1 (stereo not drawn) was read as HCMV UL50-53 inh -28.
`Cc1cc(C)nc(NNC(=S)NCc2ccc3c(c2)OCO3)n1` gave HCMV UL50-53 inh -25.
For COc1ccc(-n2nc(N3CCC(C(=O)NCc4cccnc4)CC3)ccc2=O)cc1 the results were HCMV UL50-53 inh -81 and GIV Gai3 FP 104.
CCC(=O)N=c1sc2cc(OC)c(OC)cc2n1CCOC was read as HCMV UL50-53 inh -1 and GIV Gai3 FP 101.
